Where “and” joins values, the source holds several entries; their conditions need not be identical. Equal values may be shown once.
biological target: EGFR T790M L858R (Homo sapiens, UniProt P00533, L858R/T790M); test: biochemical; conditions: EGFR(T790M/L858R) Ki (μM), 5 μM ATP, 30 min, room temperature; apparent Ki (Morrison) converted by Cheng-Prusoff, Km of ATP 1.3 μM

The chains behind the UniProt entries cited, without tags or fusion partners. Residues count along the entry.
UniProt P00533, 25-1210 T790M/L858R limits assumed: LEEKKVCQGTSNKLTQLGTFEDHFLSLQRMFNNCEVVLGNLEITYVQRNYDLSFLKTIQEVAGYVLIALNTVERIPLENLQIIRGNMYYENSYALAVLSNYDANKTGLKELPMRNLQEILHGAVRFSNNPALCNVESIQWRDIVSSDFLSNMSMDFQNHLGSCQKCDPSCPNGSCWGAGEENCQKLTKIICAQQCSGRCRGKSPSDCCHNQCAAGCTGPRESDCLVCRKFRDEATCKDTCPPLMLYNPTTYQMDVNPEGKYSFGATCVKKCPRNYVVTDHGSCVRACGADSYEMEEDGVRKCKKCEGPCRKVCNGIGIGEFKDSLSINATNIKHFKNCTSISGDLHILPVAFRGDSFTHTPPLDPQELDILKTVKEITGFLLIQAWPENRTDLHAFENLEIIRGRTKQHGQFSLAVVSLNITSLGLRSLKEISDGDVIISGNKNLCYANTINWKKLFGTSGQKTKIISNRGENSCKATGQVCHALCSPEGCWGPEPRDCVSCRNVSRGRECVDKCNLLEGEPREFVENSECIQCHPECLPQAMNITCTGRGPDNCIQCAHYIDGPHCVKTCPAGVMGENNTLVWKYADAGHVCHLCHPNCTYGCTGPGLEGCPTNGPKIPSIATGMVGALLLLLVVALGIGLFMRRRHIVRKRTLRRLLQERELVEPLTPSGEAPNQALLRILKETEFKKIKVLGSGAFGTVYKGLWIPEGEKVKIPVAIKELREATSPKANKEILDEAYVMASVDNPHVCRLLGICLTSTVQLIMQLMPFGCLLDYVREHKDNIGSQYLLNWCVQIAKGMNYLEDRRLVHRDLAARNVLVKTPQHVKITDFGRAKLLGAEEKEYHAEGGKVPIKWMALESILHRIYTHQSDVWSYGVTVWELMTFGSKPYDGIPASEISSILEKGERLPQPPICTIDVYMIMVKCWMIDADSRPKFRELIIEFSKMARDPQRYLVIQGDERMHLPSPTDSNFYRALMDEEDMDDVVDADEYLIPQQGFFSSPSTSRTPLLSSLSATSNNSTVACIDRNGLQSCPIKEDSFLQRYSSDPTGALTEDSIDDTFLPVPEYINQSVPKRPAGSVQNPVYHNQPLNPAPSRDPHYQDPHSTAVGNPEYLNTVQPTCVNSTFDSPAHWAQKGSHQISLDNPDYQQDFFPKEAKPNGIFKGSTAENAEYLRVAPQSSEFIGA

In order of falling Ki:
1. CC(C)n1cnc2cnc(Nc3ccnc(N4CC5CC4(CN)C5)n3)cc21 [Example 238]  1.73 µM
2. CC(C)n1cnc2cnc(Nc3ccnc(N4CC5CCNC5C4)n3)cc21 (centres unmarked) [Example 236]  1.72 µM
3. CC(C)n1cnc2cnc(Nc3ccnc(N4CCCC5(CNCCO5)C4)n3)cc21 (centres unmarked) [Example 232]  1.2 µM
4. CC(C)n1cnc2cnc(Nc3ccnc(N4CCC5(CC4)CC(N)C5)n3)cc21 [Example 233]  1.06 µM
5. CC(C)n1cnc2cnc(Nc3ccnc(N4CC5CC5(N)C4)n3)cc21 (centres unmarked) [Example 235]  0.989 µM
6. CC(C)n1cnc2cnc(Nc3ccnc(N4CCOC5(CCNCC5)C4)n3)cc21 [Example 231]  0.76 µM
7. COCC1CN(c2nccc(Nc3cc4c(cn3)ncn4C(C)C)n2)CCN1 (centres unmarked) [Example 241]  0.745 µM
8. CC(C)n1cnc2cnc(Nc3ccnc(N4C[C@@H]5[C@H](C4)[C@H]5C(N)=O)n3)cc21 [Example 239]  0.559 µM
9. CC(C)n1cnc2cnc(Nc3ccnc(C4CCCCC4)n3)cc21 [Example 269, (2-Cyclohexylpyrimidin-4-yl)-(1-isopropyl-1H-imidazo[4,5-c]pyridin-6-yl)amine]  0.514 µM
10. COC1CCN(c2nccc(Nc3cc4c(cn3)nc(C(=O)N3CCN(C)CC3)n4C(C)C)n2)CC1 [Example 261, (1-Isopropyl-6-(2-(4-methoxypiperidin-1-yl)pyrimidin-4-ylamino)-1H-imidazo[4,5-c]pyridin-2-yl)(4-methylpiperazin-1-yl)methanone]  0.435 µM
11. CC(C)n1cnc2cnc(Nc3ccnc(-c4ccnc(N)c4)n3)cc21 [Example 240]  0.224 µM
12. CC(C)n1cnc2cnc(Nc3ccnc(OCC(C)(C)C(N)=O)n3)cc21 [Example 242]  0.173 µM
13. CC(C)n1cnc2cnc(Nc3ccnc(NCC4CC45CCNCC5)n3)cc21 (centres unmarked) [Example 234]  0.0919 µM
14. CC(C)n1c(CO)nc2cnc(Nc3ccnc(-c4cn(CC5CC5)nc4N)n3)cc21 [Example 251, (6-(2-(3-Amino-1-(cyclopropylmethyl)-1H-pyrazol-4-yl)pyrimidin-4-ylamino)-1-isopropyl-1H-imidazo[4,5-c]pyridin-2-yl)methanol]  0.0338 µM
15. CC(C)n1c(C(F)F)nc2cnc(Nc3ccnc(-c4cnn(S(=O)(=O)C5CC5)c4)n3)cc21 [Example 263, N-(2-(1-(Cyclopropylsulfonyl)-1H-pyrazol-4-yl)pyrimidin-4-yl)-2-(difluoromethyl)-1-isopropyl-1H-imidazo[4,5-c]pyridin-6-amine]  0.0157 µM
16. CC(=O)N1CCC(S(=O)(=O)n2cc(-c3nccc(Nc4cc5c(cn4)nc(C)n5C(C)C)n3)cn2)C1 (centres unmarked) [Example 259, 1-(3-(4-(4-(1-Isopropyl-2-methyl-1H-imidazo[4,5-c]pyridin-6-ylamino)pyrimidin-2-yl)-1H-pyrazol-1-ylsulfonyl)pyrrolidin-1-yl)ethanone]  0.0132 µM
17. COC1CCN(c2nccc(Nc3cc4c(cn3)c(C(=O)NCCCN3CCOCC3)cn4C(C)C)n2)CC1 [Example 244]  0.0126 µM
18. COC1CCN(c2nccc(Nc3cc4c(cn3)c(C(=O)NCCCO)cn4C(C)C)n2)CC1 [Example 243]  0.0113 µM
19. COC1CCN(c2nccc(Nc3cc4c(cn3)c(C(=O)NCCN3CCCC3)cn4C(C)C)n2)CC1 [Example 246]  0.0102 µM
20. COC1CCN(c2nccc(Nc3cc4c(cn3)nc(C)n4C(C)C3CC3)n2)CC1 (centres unmarked) [Example 268, [1-(1-Cyclopropylethyl)-2-methyl-1H-imidazo[4,5-c]pyridin-6-yl]-[2-(4-methoxypiperidin-1-yl)pyrimidin-4-yl]amine]  0.0092 µM
21. COC1CCN(c2nccc(Nc3cc4c(cn3)c(C(=O)NCCN3CCN(C)CC3)cn4C(C)C)n2)CC1 [Example 245]  0.0071 µM
22. COC1CCN(c2nccc(Nc3cc4c(cn3)c(C(=O)NCCN3CCNCC3)cn4C(C)C)n2)CC1 [Example 247]  0.0062 µM
23. CCCC(C)n1c(CO)nc2cnc(Nc3ccnc(-c4cnn(S(=O)(=O)C5CC5)c4)n3)cc21 (centres unmarked) [Example 265, (6-(2-(1-(Cyclopropylsulfonyl)-1H-pyrazol-4-yl)pyrimidin-4-ylamino)-1-(pentan-2-yl)-1H-imidazo[4,5-c]pyridin-2-yl)methanol]  0.00612 µM
24. Cc1nc2cnc(Nc3ccnc(-c4cnn(S(=O)(=O)C5COC5)c4)n3)cc2n1C(C)C [Example 260, 1-Isopropyl-2-methyl-N-(2-(1-(oxetan-3-ylsulfonyl)-1H-pyrazol-4-yl)pyrimidin-4-yl)-1H-imidazo[4,5-c]pyridin-6-amine]  0.00588 µM
25. COC1CCN(c2nccc(Nc3cc4c(cn3)c(C(=O)NC3CNC3)cn4C(C)C)n2)CC1 [Example 250]  0.0054 µM
26. Cc1nc2cnc(Nc3ccnc(-c4cnn(S(=O)(=O)C5CCNC5)c4)n3)cc2n1C(C)C (centres unmarked) [Example 258, 1-Isopropyl-2-methyl-N-(2-(1-(pyrrolidin-3-ylsulfonyl)-1H-pyrazol-4-yl)pyrimidin-4-yl)-1H-imidazo[4,5-c]pyridin-6-amine]  0.00381 µM
27. CC(C)n1cc(-c2cn[nH]n2)c2cnc(Nc3ccnc(-c4cn[nH]c4)n3)cc21 [Example 254, N-(2-(1H-pyrazol-4-yl)pyrimidin-4-yl)-1-isopropyl-3-(2H-1,2,3-triazol-4-yl)-1H-pyrrolo[3,2-c]pyridin-6-amine]  0.0033 µM
28. COC1CCN(c2nccc(Nc3cc4c(cn3)c(C(=O)NCC3CCNCC3)cn4C(C)C)n2)CC1 [Example 248]  0.003 µM
29. COC1CCN(c2nccc(Nc3cc4c(cn3)c(C(=O)NCCS(C)(=O)=O)cn4C(C)C)n2)CC1 [Example 249]  0.0028 µM
30. Cc1cn(CCO)nc1-c1cn(C(C)C)c2cc(Nc3ccnc(-c4cnn(S(=O)(=O)C5CC5)c4)n3)ncc12 [Example 253, 2-(3-(6-(2-(1-(Cyclopropylsulfonyl)-1H-pyrazol-4-yl)pyrimidin-4-ylamino)-1-isopropyl-1H-pyrrolo[3,2-c]pyridin-3-yl)-4-methyl-1H-pyrazol-1-yl)ethanol]  0.00197 µM
31. Cc1nc2cnc(Nc3ccnc(-c4cnn(S(=O)(=O)C5CC5)c4)n3)cc2n1C(C)C(F)(F)F (centres unmarked) [Example 257, N-(2-(1-(Cyclopropylsulfonyl)-1H-pyrazol-4-yl)pyrimidin-4-yl)-2-methyl-1-(1,1,1-trifluoropropan-2-yl)-1H-imidazo[4,5-c]pyridin-6-amine]  0.00194 µM
32. CC(C)n1c(C=O)nc2cnc(Nc3ccnc(-c4cnn(S(=O)(=O)C5CC5)c4)n3)cc21 [Example 264, 6-(2-(1-(Cyclopropylsulfonyl)-1H-pyrazol-4-yl)pyrimidin-4-ylamino)-1-isopropyl-1H-imidazo[4,5-c]pyridine-2-carbaldehyde]  0.00172 µM
33. CCS(=O)(=O)n1cc(-c2nccc(Nc3cc4c(cn3)c(-c3cnn(CC(=O)NC5COC5)c3)cn4C(C)C)n2)cn1 [Example 255, 2-(4-(6-(2-(1-(Ethylsulfonyl)-1H-pyrazol-4-yl)pyrimidin-4-ylamino)-1-isopropyl-1H-pyrrolo[3,2-c]pyridin-3-yl)-1H-pyrazol-1-yl)-N-(oxetan-3-yl)acetamide]  0.000919 µM
34. CC(C)n1cc(C(=O)NC2CCC(C#N)CC2)c2cnc(Nc3ccnc(-c4cnn(S(=O)(=O)C5CC5)c4)n3)cc21 (centres unmarked) [Example 252, N-(4-Cyanocyclohexyl)-6-((2-(1-(cyclopropylsulfonyl)-1H-pyrazol-4-yl)pyrimidin-4-yl)amino)-1-isopropyl-1H-pyrrolo[3,2-c]pyridine-3-carboxamide]  0.000205 µM

`CC(C)n1cnc2cnc(Nc3ccnc(N4CC5CNCC(C4)O5)n3)cc21` [Example 237] was tested, and the Ki was 1.78 µM and 0.507 µM.

Reference: patent US9890152B2 (Genentech, Inc., priority 2012, dated 2018)
